{
  "source": "patent US20110008343A1",
  "about": "“Method Of Reducing Tissue Loss In Pancreatic Islet Cell Transplantation” (priority 2007, published 2011)",
  "key": {"[1]": {"assay": "Cytokine induction by LMW-DS in healthy monkeys", "type": "in vivo", "procedure": "Plasma IL-6, TNFα, IL-1β, and CRP were measured using a commercial ELISA kit (Immulite IL-6, Immulite TNFα, Immulite IL-1β, and Immulite High Sensitivity CRP, respectively; Diagnostic Products Corporation, Los Angeles, Calif., USA).\nInfluence of LMW-DS on cytokine induction was examined using three healthy monkeys. Only a slight increase in the IL-6 levels was seen 24 hours after administration of LMW-DS in two out of three healthy monkeys (maximum 27 μg/L)."}, "[2]": {"assay": "Blood cell counts, liver and renal function in monkeys transplanted with porcine islets", "type": "in vivo, Cynomolgus monkeys (Macaca fascicularis)"}, "[3]": {"assay": "Plasma APTT and LMW-DS concentration in transplanted monkeys", "type": "in vivo, Cynomolgus monkeys (Macaca fascicularis)", "conditions": "converted from APTT", "procedure": "Blood samples: […] […] Analyses of blood and plasma samples: Activated Partial Thromboplastin Time (APTT) measurements were performed as previously described (Johansson et al., (2006) Am J. Transplant. 6 (2): 305)."}, "APIs": {"test_system": "APIs", "conditions": "100, 1000 or 2500 mg/L LMW-DS, APIs from three pancreata"}, "[4]": {"conditions": "24 hours after islet transplantation"}, "[5]": {"conditions": "transplanted monkeys, throughout the experiments"}},
  "data": [
    {"substance": "Low molecular weight dextran sulfate [LMW-DS]", "values": [
      {"measurement": "IL-6 levels", "setting": "[1]; 24 hours after LMW-DS, slight increase in two out of three healthy monkeys, maximum", "result": "≤ 27", "unit": "µg/L"},
      {"measurement": "plasma CRP", "setting": "[1]; three healthy monkeys", "result": "did not trigger an increase"},
      {"measurement": "plasma IL-1β", "setting": "[1]; three healthy monkeys", "result": "did not trigger an increase"},
      {"measurement": "plasma TNFα", "setting": "[1]; three healthy monkeys", "result": "did not trigger an increase"},
      {"measurement": "ALT", "setting": "[2]; [4]", "result": "207.7±68.7"},
      {"measurement": "AST", "setting": "[2]; [4]", "result": "434.7±126.4"},
      {"measurement": "bleedings or other adverse reactions", "setting": "[2]; transplanted monkeys", "result": "No bleedings or other adverse reactions"},
      {"measurement": "creatinine levels", "setting": "[2]; [5]", "result": "within normal ranges"},
      {"measurement": "platelet count", "setting": "[2]; [5]", "result": "within normal ranges"},
      {"measurement": "plasma concentration of LMW-DS", "setting": "[3]; monkey M-5, 24 hours", "result": 30000, "unit": "ng/mL"},
      {"measurement": "plasma concentration of LMW-DS", "setting": "[3]; monkey M-7, 24 hours", "result": 15000, "unit": "ng/mL"},
      {"measurement": "plasma concentration of LMW-DS", "setting": "[3]; monkey M-9, 24 hours", "result": 35000, "unit": "ng/mL"},
      {"measurement": "effect on insulin release of APIs", "setting": "APIs", "result": "no adverse effect"}
    ]}
  ]
}
